Data published in patent publication US20070154457A1, “Use of eIF-5A to kill multiple myeloma cells” (Senesco Technologies, Inc., priority 2005, published 2007).
Some compounds may have been tested in ways that are not shown here.

Tested on: eIF5A1
Experiment: Western blot of eIF5A1 expression in RKO cells
Settings: 3 mM
Description: Protein for Western blotting was isolated using boiling lysis buffer [2% SDS, 50 mM Tris-HCl (pH 7.4)]. Protein concentrations were determined using the Bicinchoninic Acid Kit (Sigma). For Western blotting, 5 μg of total protein was fractionated on a 12% SDS-polyacrylamide gel and transferred to a polyvinylidene difluoride membrane. The primary antibodies used were anti-eIF5A (BD Transduction Laboratories; mouse IgG) and anti-β-actin (Oncogene; mouse IgM), both at a dilution of 1:20,000 in 5% milk. The secondary antibodies were anti-mouse IgG conjugated to horseradish peroxidase (HRP; Sigma) and anti-mouse IgM-HRP (Oncogene). Antibody-protein complexes were visualized using the enhanced chemiluminescence method (ECL, Amersham Biosciences). Following detection of eIF5A, the blots were stripped according to the protocol provided by the ECL Plus Western blotting detection system and reprobed with anti-β-actin antibody to confirm equal loading.

Substance: Sodium nitroprusside
- eIF5A1 protein expression: upregulate eIF5A1 protein expression
